Data taken from ChEMBL document CHEMBL3784945, “Isoindolinone compounds active as Kv1.5 blockers identified using a multicomponent reaction approach” (Bioorg Med Chem Lett, 2016).

Sequences of proteins named here, by UniProt entry; tags and fusion partners are left off.
UniProt P22460, whole entry: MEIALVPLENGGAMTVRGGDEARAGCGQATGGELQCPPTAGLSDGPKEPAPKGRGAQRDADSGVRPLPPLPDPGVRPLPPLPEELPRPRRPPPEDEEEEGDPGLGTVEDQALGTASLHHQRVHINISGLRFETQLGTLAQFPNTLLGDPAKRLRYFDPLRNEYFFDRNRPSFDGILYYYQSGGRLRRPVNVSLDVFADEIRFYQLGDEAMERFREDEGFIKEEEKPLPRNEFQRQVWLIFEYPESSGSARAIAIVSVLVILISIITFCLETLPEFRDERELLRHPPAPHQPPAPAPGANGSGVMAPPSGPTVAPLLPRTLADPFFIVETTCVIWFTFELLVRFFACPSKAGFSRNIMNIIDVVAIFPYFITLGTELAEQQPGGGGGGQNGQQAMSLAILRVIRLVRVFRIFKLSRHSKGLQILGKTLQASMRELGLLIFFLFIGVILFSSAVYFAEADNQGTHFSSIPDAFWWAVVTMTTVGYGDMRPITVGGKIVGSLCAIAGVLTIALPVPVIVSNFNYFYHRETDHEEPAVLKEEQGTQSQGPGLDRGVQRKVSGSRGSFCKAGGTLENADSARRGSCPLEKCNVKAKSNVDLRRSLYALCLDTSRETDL

Each compound was assayed against Potassium voltage-gated channel subfamily A member 5 (Homo sapiens, UniProt P22460) (assay: Inhibition of human Kv1.5 channel by QPatch-clamp method).

IC50	Compound
1 µM	CC(C)(C)NC(=O)C1c2ccccc2C(=O)N1Cc1ccccc1-c1ccccc1 (single isomer, unassigned; enantiomer 1)
3 µM	CC(C)(C)NC(=O)C1c2ccccc2C(=O)N1Cc1ccccc1-c1ccccc1 (single isomer, unassigned; enantiomer 2)
0.9 µM	CC(C)(C)NC(=O)C1c2ccccc2C(=O)N1Cc1ccccc1-c1ccccc1 (racemic)
